Earlier results as cited in patent US7923469B2, “Compositions including vitamin-based surfactants and methods for using same” (Allergen, Inc., priority 2001, dated 2011).

Settings: in water at 37° C.

D-alpha-tocopheryl polyethylene glycol 1000 succinate [Vitamin E TPGS]
critical micelle concentration (CMC): about 0.02 w/v %
